Test [1] concerns the target FGFR1 (Homo sapiens (Human), UniProt P11362). Briefly: FGFR Enzymatic Assay (FGFR1). Type of test: biochemical. Conditions: read-out: FGFR1 IC50; enzyme 0.02 nM, ATP 210 μM.
Test [2] has as its target FGFR2 (Homo sapiens (Human), UniProt P21802). Kind of test: FGFR Enzymatic Assay (FGFR2).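 Note: FRET read-out of peptide phosphorylation by the purified kinase, with enzyme-free blank and uninhibited enzyme as controls, potency from a variable-slope sigmoidal dose-response fit.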 Type of test: biochemical. Conditions: read-out: FGFR2 IC50; enzyme 0.01 nM, ATP 100 μM.

Sequences of proteins named here, by UniProt entry; tags and fusion partners are left off. Residues count along the entry.
UniProt P11362, 22-822 limits assumed: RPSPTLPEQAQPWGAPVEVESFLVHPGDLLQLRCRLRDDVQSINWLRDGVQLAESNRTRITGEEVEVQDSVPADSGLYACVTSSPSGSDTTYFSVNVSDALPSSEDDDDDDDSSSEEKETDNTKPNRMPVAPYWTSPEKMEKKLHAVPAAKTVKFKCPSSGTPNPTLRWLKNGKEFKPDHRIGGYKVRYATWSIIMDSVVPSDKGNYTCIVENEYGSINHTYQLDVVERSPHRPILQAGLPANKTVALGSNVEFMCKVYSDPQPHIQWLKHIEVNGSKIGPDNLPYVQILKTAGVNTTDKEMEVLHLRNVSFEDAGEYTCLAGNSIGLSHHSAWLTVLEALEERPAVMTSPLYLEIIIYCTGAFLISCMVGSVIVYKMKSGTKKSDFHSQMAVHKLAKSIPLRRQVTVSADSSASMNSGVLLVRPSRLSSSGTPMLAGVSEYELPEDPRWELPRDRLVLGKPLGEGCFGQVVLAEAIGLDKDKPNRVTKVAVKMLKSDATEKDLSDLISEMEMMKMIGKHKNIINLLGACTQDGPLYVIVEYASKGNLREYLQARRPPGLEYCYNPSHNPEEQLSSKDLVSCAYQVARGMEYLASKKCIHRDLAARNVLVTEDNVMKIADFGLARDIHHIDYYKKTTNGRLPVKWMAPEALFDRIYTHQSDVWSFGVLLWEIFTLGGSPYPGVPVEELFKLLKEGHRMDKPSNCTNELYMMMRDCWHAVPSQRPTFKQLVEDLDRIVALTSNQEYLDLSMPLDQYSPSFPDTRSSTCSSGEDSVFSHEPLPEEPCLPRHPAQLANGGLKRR
UniProt P21802, 22-821 limits assumed: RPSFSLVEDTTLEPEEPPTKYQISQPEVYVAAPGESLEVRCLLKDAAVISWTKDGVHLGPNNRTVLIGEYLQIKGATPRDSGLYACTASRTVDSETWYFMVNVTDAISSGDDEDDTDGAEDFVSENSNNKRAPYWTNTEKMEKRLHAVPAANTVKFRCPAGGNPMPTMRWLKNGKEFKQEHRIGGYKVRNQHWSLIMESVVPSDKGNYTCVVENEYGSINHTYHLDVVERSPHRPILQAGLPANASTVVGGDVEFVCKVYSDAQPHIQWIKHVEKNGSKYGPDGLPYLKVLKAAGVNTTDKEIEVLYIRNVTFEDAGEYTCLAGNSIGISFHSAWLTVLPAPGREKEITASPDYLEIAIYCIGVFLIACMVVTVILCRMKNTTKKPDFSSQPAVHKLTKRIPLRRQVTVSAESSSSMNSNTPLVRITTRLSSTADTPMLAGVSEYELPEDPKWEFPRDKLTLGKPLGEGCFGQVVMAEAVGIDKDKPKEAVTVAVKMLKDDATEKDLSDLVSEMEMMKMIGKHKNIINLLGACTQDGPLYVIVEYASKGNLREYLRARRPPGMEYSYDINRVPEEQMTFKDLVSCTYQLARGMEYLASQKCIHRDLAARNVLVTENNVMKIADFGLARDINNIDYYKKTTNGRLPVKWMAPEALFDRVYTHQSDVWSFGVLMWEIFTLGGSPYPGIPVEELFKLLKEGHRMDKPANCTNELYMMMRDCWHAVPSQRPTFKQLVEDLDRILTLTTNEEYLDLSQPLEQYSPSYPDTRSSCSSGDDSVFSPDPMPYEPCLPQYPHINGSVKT

Molecules are shown by their SMILES.

What is called IC50 is the concentration that gives 50% inhibition. In the case of `COc1cc(CCc2cnc3[nH]c(-c4csc(C(=O)O)c4)cc3n2)cc(OC)c1`, the IC50 in test [1] and in test [2] was < 100 nM in each case.

Values taken from US9745311B2, “Substituted pyrrolo[2,3-b]pyrazines as FGFR inhibitors” (Incyte Corporation, priority 2012, dated 2017).
